Biological target: T1, human A3AR (Homo sapiens, UniProt P0DMS8)
T1 construct: expressed in transfected cells
Test: Cyclic AMP accumulation assay: inhibition of forskolin-stimulated cyclic AMP production in AR-transfected CHO cells
Format: cell-based
Details: for % Inhibition of cAMP formation at hA3 AR: at 10 μM, in comparison to the maximal effect of full agonist NECA at 10 μM; for % Inhibition of cAMP accumulation at the hA3AR: concentration 1.0 μM, in comparison to full agonist NECA at 1 μM

The chains behind the UniProt entries cited, without tags or fusion partners.
UniProt P0DMS8, whole entry: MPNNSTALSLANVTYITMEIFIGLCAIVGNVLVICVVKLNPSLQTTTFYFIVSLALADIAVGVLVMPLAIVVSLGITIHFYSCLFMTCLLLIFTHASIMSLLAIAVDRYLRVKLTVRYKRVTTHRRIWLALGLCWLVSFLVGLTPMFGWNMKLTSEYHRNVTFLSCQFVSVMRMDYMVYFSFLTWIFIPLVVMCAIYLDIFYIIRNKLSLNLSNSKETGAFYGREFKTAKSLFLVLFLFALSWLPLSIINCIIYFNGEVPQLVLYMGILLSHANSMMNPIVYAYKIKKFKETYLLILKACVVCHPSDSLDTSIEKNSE

Compound	% Inhibition of cAMP formation at hA3 AR	% Inhibition of cAMP accumulation at the hA3AR
CCNC(=O)[C@H]1O[C@@H](n2cnc3c(N)ncnc32)[C@H](O)[C@@H]1O [NECA, 5′-N-ethylcarboxamidoadenosine, reference compound]	100%	100%
CNC(=O)[C@H]1O[C@@H](n2cnc3c(NCc4cccc(I)c4)nc(Cl)nc32)[C@H](O)[C@@H]1O [Cl-IB-MECA, 2-chloro-N^6-(3-iodobenzyl)-5′-N-methylcarboxamidoadenosine, reference compound]	97%	97%

— patent publication US8518957B2, “Methanocarba adenosine derivatives, pharmaceutical compositions, and method of reducing intraocular pressure” (The United States of America, as represented by the …, priority 2009, dated 2013)
